B1: S291 (peptide)
chain 1: GGGFHENFYDWFVRQVSKK
chain 2: GGGFHENFYDWFVRQVSKK
B2: S337 (peptide)
chain 1: GSLDESFYDWFERQLGKK
chain 2: GSLDESFYDWFERQLGKK
modifications: not fully specified
B3: S414 (peptide)
chain 1: ESFYDWFERQLGK
chain 2: ESFYDWFERQLGK
B4: S380 (peptide)
chain 1: EEDWLQRNANFYDWFVAEL
chain 2: EEDWLQRNANFYDWFVAEL

These binders were tested against mIR (human, UniProt P06213) (assay: FP vs FITC-RP9).

In order of rising IC50:
1. B4  27 nM
2. B2  111 nM
3. B3  151 nM
4. GRVDWLQRNANFYDWFVAELG [S175]  167 nM
5. SFYDWFERQLG [S391]  284 nM
6. B1  668 nM
